Measurements taken from PubChem BioAssay (NCI).
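How tested: cells in 96-well plates exposed to compound for 48 hours at five concentrations. GI50 marks 50% less growth. TGI marks complete inhibition of growth.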

Experiments:
Test in all cases: NCI tumour cell line growth inhibition, 48 h
HT29 colon = tested on: HT29 colon
SW-620 colon = tested on: SW-620 colon
786-0 renal = tested on: 786-0 renal
MCF7 breast = tested on: MCF7 breast
RXF 393 renal = tested on: RXF 393 renal
NCI-H460 lung = tested on: NCI-H460 lung
MDA-MB-435 = tested on: MDA-MB-435
CAKI-1 renal = tested on: CAKI-1 renal
IGROV1 ovarian = tested on: IGROV1 ovarian
M14 melanoma = tested on: M14 melanoma
ACHN renal = tested on: ACHN renal
CCRF-CEM leukemia = tested on: CCRF-CEM leukemia
A498 renal = tested on: A498 renal
U251 CNS = tested on: U251 CNS
UACC-257 melanoma = tested on: UACC-257 melanoma
HS 578T breast = tested on: HS 578T breast
MOLT-4 leukemia = tested on: MOLT-4 leukemia
OVCAR-3 ovarian = tested on: OVCAR-3 ovarian
OVCAR-5 ovarian = tested on: OVCAR-5 ovarian
HOP-62 NSCLC = tested on: HOP-62 NSCLC
T-47D breast = tested on: T-47D breast
SF-268 CNS = tested on: SF-268 CNS
SNB-75 CNS = tested on: SNB-75 CNS
MDA-MB-231 breast = tested on: MDA-MB-231 breast
MALME-3M melanoma = tested on: MALME-3M melanoma
NCI-H522 lung = tested on: NCI-H522 lung
LOX IMVI melanoma = tested on: LOX IMVI melanoma
SR leukemia = tested on: SR leukemia
SK-MEL-5 melanoma = tested on: SK-MEL-5 melanoma
HCT-15 colon = tested on: HCT-15 colon
UO-31 renal = tested on: UO-31 renal
OVCAR-4 ovarian = tested on: OVCAR-4 ovarian
TK-10 renal = tested on: TK-10 renal
SN12C renal = tested on: SN12C renal
DU-145 prostate = tested on: DU-145 prostate
UACC-62 melanoma = tested on: UACC-62 melanoma
NCI-H226 lung = tested on: NCI-H226 lung
HOP-92 NSCLC = tested on: HOP-92 NSCLC
K-562 leukemia = tested on: K-562 leukemia
NCI/ADR-RES ovarian = tested on: NCI/ADR-RES ovarian
NCI-H23 lung = tested on: NCI-H23 lung
HCC-2998 colon = tested on: HCC-2998 colon
PC-3 prostate = tested on: PC-3 prostate
A549 NSCLC = tested on: A549 NSCLC
SF-539 CNS = tested on: SF-539 CNS
HCT-116 colon = tested on: HCT-116 colon
SK-MEL-2 melanoma = tested on: SK-MEL-2 melanoma
NCI-H322M lung = tested on: NCI-H322M lung
OVCAR-8 ovarian = tested on: OVCAR-8 ovarian
SNB-19 CNS = tested on: SNB-19 CNS
SF-295 CNS = tested on: SF-295 CNS
SK-MEL-28 melanoma = tested on: SK-MEL-28 melanoma
KM12 colon = tested on: KM12 colon
RPMI-8226 leukemia = tested on: RPMI-8226 leukemia
COLO 205 colon = tested on: COLO 205 colon
BT-549 breast = tested on: BT-549 breast
SK-OV-3 ovarian = tested on: SK-OV-3 ovarian

In the case of `NCCc1ccc(N(CCCl)CCCl)cc1`, the GI50 (HT29 colon) was 9.01 µM, the TGI (HT29 colon) was 54.6 µM and the GI50 (SW-620 colon) was 6.34 µM. It also gave a TGI (SW-620 colon) of over 100 µM, a GI50 (786-0 renal) of 3.51 µM and a TGI (786-0 renal) of 13.7 µM. It also gave a GI50 (MCF7 breast) of 0.7 µM, a TGI (MCF7 breast) of 26.6 µM and a GI50 (RXF 393 renal) of 1.99 µM. The TGI (RXF 393 renal) was 5.76 µM, the GI50 (NCI-H460 lung) was 0.647 µM and the TGI (NCI-H460 lung) was 30.4 µM. The GI50 (MDA-MB-435) was 10.4 µM, the TGI (MDA-MB-435) was 24.1 µM and the GI50 (CAKI-1 renal) was 0.736 µM. The TGI (CAKI-1 renal) was 18.9 µM, the GI50 (IGROV1 ovarian) was 2.59 µM and the TGI (IGROV1 ovarian) was 37.5 µM. The GI50 (M14 melanoma) was 7.46 µM, the TGI (M14 melanoma) was 99.1 µM and the GI50 (ACHN renal) was 0.694 µM. The TGI (ACHN renal) was 6.05 µM, the GI50 (CCRF-CEM leukemia) was 1.01 µM and the TGI (CCRF-CEM leukemia) was over 100 µM. For the same compound, the GI50 (A498 renal) was 3.54 µM, the TGI (A498 renal) was 18.9 µM and the GI50 (U251 CNS) was 2.36 µM. It also gave a TGI (U251 CNS) of 43.8 µM, a GI50 (UACC-257 melanoma) of 15.4 µM and a TGI (UACC-257 melanoma) of 57.2 µM. It also gave a GI50 (HS 578T breast) of 22.3 µM, a TGI (HS 578T breast) of 70.2 µM and a GI50 (MOLT-4 leukemia) of 1.39 µM. The TGI (MOLT-4 leukemia) was over 100 µM, the GI50 (OVCAR-3 ovarian) was 5.25 µM and the TGI (OVCAR-3 ovarian) was 29.1 µM. For the same compound, the GI50 (OVCAR-5 ovarian) was 3.84 µM, the TGI (OVCAR-5 ovarian) was 24.6 µM and the GI50 (HOP-62 NSCLC) was 16.7 µM. The TGI (HOP-62 NSCLC) was over 100 µM, the GI50 (T-47D breast) was 6.17 µM and the TGI (T-47D breast) was over 100 µM. It also gave a GI50 (SF-268 CNS) of 1.95 µM, a TGI (SF-268 CNS) of 33.1 µM and a GI50 (SNB-75 CNS) of 2.98 µM. For the same compound, the TGI (SNB-75 CNS) was 22.3 µM, the GI50 (MDA-MB-231 breast) was 19.5 µM and the TGI (MDA-MB-231 breast) was 70.4 µM. For the same compound, the GI50 (MALME-3M melanoma) was 3.24 µM, the TGI (MALME-3M melanoma) was 12.9 µM and the GI50 (NCI-H522 lung) was 1.56 µM. For the same compound, the TGI (NCI-H522 lung) was 3.75 µM, the GI50 (LOX IMVI melanoma) was 2.06 µM and the TGI (LOX IMVI melanoma) was 40.6 µM. It also gave a GI50 (SR leukemia) of 0.541 µM, a TGI (SR leukemia) of over 100 µM and a GI50 (SK-MEL-5 melanoma) of 12.9 µM. The TGI (SK-MEL-5 melanoma) was 60.4 µM, the GI50 (HCT-15 colon) was 5.85 µM and the TGI (HCT-15 colon) was 91.7 µM. The GI50 (UO-31 renal) was 2.29 µM, the TGI (UO-31 renal) was 9.41 µM and the GI50 (OVCAR-4 ovarian) was 11.1 µM. It also gave a TGI (OVCAR-4 ovarian) of 50.3 µM, a GI50 (TK-10 renal) of 11.5 µM and a TGI (TK-10 renal) of 41.6 µM. It also gave a GI50 (SN12C renal) of 2.23 µM, a TGI (SN12C renal) of 77.7 µM and a GI50 (DU-145 prostate) of 2.9 µM. It also gave a TGI (DU-145 prostate) of 24.6 µM, a GI50 (UACC-62 melanoma) of 4.17 µM and a TGI (UACC-62 melanoma) of 20.4 µM. The GI50 (NCI-H226 lung) was 16.5 µM, the TGI (NCI-H226 lung) was 71.5 µM and the GI50 (HOP-92 NSCLC) was 2.15 µM. For the same compound, the TGI (HOP-92 NSCLC) was 25.5 µM, the GI50 (K-562 leukemia) was 5.5 µM and the TGI (K-562 leukemia) was over 100 µM. The GI50 (NCI/ADR-RES ovarian) was 5.01 µM, the TGI (NCI/ADR-RES ovarian) was over 100 µM and the GI50 (NCI-H23 lung) was 4.91 µM. For the same compound, the TGI (NCI-H23 lung) was 48.9 µM, the GI50 (HCC-2998 colon) was 14.8 µM and the TGI (HCC-2998 colon) was 41.2 µM. The GI50 (PC-3 prostate) was 11.5 µM, the TGI (PC-3 prostate) was 67.1 µM and the GI50 (A549 NSCLC) was 9.91 µM. It also gave a TGI (A549 NSCLC) of 75.3 µM, a GI50 (SF-539 CNS) of 2.24 µM and a TGI (SF-539 CNS) of 10.1 µM. It also gave a GI50 (HCT-116 colon) of 7.88 µM, a TGI (HCT-116 colon) of over 100 µM and a GI50 (SK-MEL-2 melanoma) of 4.29 µM. The TGI (SK-MEL-2 melanoma) was 20.6 µM, the GI50 (NCI-H322M lung) was 18 µM and the TGI (NCI-H322M lung) was 60.2 µM. For the same compound, the GI50 (OVCAR-8 ovarian) was 4.46 µM, the TGI (OVCAR-8 ovarian) was 45.1 µM and the GI50 (SNB-19 CNS) was 8.78 µM. For the same compound, the TGI (SNB-19 CNS) was over 100 µM, the GI50 (SF-295 CNS) was 3.41 µM and the TGI (SF-295 CNS) was over 100 µM. The GI50 (SK-MEL-28 melanoma) was 15.9 µM, the TGI (SK-MEL-28 melanoma) was 64.8 µM and the GI50 (KM12 colon) was 14.5 µM. For the same compound, the TGI (KM12 colon) was 42 µM, the GI50 (RPMI-8226 leukemia) was 3.23 µM and the TGI (RPMI-8226 leukemia) was 35.2 µM. For the same compound, the GI50 (COLO 205 colon) was 12 µM, the TGI (COLO 205 colon) was 31.6 µM and the GI50 (BT-549 breast) was 13.5 µM. It also gave a TGI (BT-549 breast) of 48.2 µM, a GI50 (SK-OV-3 ovarian) of 10.8 µM and a TGI (SK-OV-3 ovarian) of over 100 µM.
